AlphaSeq binding of Ab-14 light chain variants to a spike HR2 peptide

Binding partner: SARS-CoV-2 spike HR2 peptide, sequence PDVDLGDISGINAS.

Each scFv is VH, a 15-residue (Gly4Ser)3 linker, VL, as in the parent Ab-14, and differs from it in the CDRs of the light chain only.
VH: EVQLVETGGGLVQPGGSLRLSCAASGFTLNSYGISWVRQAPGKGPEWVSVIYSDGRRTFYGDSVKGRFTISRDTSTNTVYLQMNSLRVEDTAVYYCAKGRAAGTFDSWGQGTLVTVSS
VL: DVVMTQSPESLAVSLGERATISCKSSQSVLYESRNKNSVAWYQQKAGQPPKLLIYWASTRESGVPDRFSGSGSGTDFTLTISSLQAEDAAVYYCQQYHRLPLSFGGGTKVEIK

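The parent was found by panning a naive human phage display library on the peptide. The library (AAYL50) carries one to three amino acid substitutions per variant, with no insertions or deletions. The scFvs were displayed on barcoded MATa yeast, the peptide on MATalpha yeast. The frequency of each diploid, read from paired DNA barcodes, reflects how well the two displayed proteins bind. Each replicate has its own calibration line, from reference interactions of the BCL2 family. The assay was run in three technical replicates.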

Variants are written as CDR1, CDR2 and CDR3 of the light chain (limits as in the source). Parent: KSSQSVLYESRNKNSVA, WASTRES, QQYHRLPLS. Values are log10 of the apparent Kd in nM; lower means stronger binding. "n.d." marks a missing value. The strain was present, yet no cells mated with the target were sequenced in that replicate, which points to weak or no binding. As a blank, each scFv also met three strains without target: over library AAYL50, 18% of these pairings were detected, typically at 4.19 and seldom below 2.99. The control count says in how many pairings with the empty strains this scFv gave a signal, with their mean in brackets. In this assay the parent's reference entry averaged 0.65; its copy inside this library read 1.68.

CDR-L1,CDR-L2,CDR-L3,"replicates, log10 nM",signal with controls
KSSQSVLYWSRNKNSVA,WASTRES,QCYERLPLS,4.42 4.17 3.91,3 of 9 (4.62)
KSSQRVLYESRNKNSVL,MASTRES,QQYHRLPLS,n.d. n.d. n.d.,0 of 9
KSSQSVLYESRNKNHVA,DASTRES,QQYHRLPLS,-0.01 0.29 0.06,6 of 9 (5.46)
KSSQSVLYRSRNKNSVK,WASTRES,QCYHRLPLS,n.d. 3.80 4.41,2 of 9 (4.38)
KSSQSVHYESRNKNSVA,WASIRES,QQYHRQPLS,1.42 1.58 1.50,0 of 9
KSSQSVLYESRNKNSLQ,WASTRES,KQYHRLPLS,n.d. n.d. 5.95,2 of 9 (4.11)
WSSQSHLYESRNKNSVA,LASTRES,QQYHRLPLS,3.02 2.35 2.46,0 of 9
KSSQSVLYESRNWNSVA,LASTREF,QQYHRLPLS,3.52 3.41 3.79,7 of 9 (4.59)
KDSQSVLYESRNKNSVA,WASTRES,QQYHVLPLN,4.09 3.23 4.36,3 of 9 (4.07)
KSSQSVLFESRNKNSVA,TASTRES,QMYHRLPLS,2.01 2.53 2.69,2 of 9 (4.11)
KSSQSVLYESRNSNSVA,WISTDES,QQYHRLPLS,n.d. n.d. 4.14,1 of 9 (3.53)
KSSQQVLYESRNKNSVA,WASRRET,QQYHRLPLS,2.01 1.96 1.83,2 of 9 (4.24)
KSSQSVLYESRNKNSVA,WASTREA,QAYARLPLS,0.45 0.75 0.64,1 of 9 (6.00)
KSSQSVLWESRNKNSVA,WASTRES,QWYHRLPLS,2.24 2.65 n.d.,2 of 9 (2.89)
KSSQSVLYESRTKNSVA,WASTPFS,QQYHRLPLS,n.d. n.d. n.d.,0 of 9
KSSQSVLYESRNKNSVA,WASTRES,PQYWKLPLS,0.08 0.67 0.67,0 of 9
KESQSVLYESRNKNSVA,WASTKES,KQYHRLPLS,n.d. 3.84 n.d.,0 of 9
KSSQSVLYESRNVNSVS,WASTRES,QQYHRLPLS,n.d. 2.41 1.98,0 of 9
KSSQSVLYESRGGNSVT,WASTRES,QQYHRLPLS,3.56 n.d. 3.76,5 of 9 (4.27)
KSSQSVPYESRNKNSVA,WASTRES,QQYHCPPLS,0.48 0.58 0.96,1 of 9 (3.48)
KGSQSVLYWSRNKNSVA,WASTRES,QLYHRLPLS,3.88 2.89 4.10,3 of 9 (4.33)
KSVQSVLREKRNKNSVA,WASTRES,QQYHRLPLS,n.d. 2.83 n.d.,0 of 9
SSSQSVLYESRNKNSVA,WASTRES,QQYHRLPLS,0.85 0.86 1.12,0 of 9
KSSQSVLYESRNKNSVA,WASTRES,QQYHFLPIG,n.d. n.d. n.d.,0 of 9
KSSQSVLYESRNKQSVA,WLSTREC,QQYHRLPLS,n.d. 3.47 n.d.,0 of 9
KSSQSVLYESRNKDSVD,WASTRES,QQYHSLPLS,n.d. n.d. n.d.,2 of 9 (4.18)
KSSQSVLYESRNKNSVA,TAGTRIS,QQYHRLPLS,2.49 n.d. 0.45,0 of 9
KRSQSVLYESRNKNSVA,WASTREK,QQYHRLPGS,n.d. 3.83 4.72,4 of 9 (3.83)
MYSQSVLYESRNKNSVA,WAFTRES,QQYHRLPLS,n.d. n.d. n.d.,0 of 9
KSRMSVLYESRNKNSVA,WASNRES,QQYHRLPLS,n.d. 2.82 2.70,1 of 9 (3.84)
KSSQSVLYESPNKNSVA,WASTTES,QQVHRLPLS,n.d. 3.88 n.d.,2 of 9 (3.77)
KSSQSVLYDSRNKNSVA,WASTRSS,PQYHRLPLS,1.61 1.73 1.69,3 of 9 (3.97)
KSSQSVLYELRQKNSVA,WASGRES,QQYHRLPLS,n.d. n.d. 4.46,0 of 9

A selection of 3 entries from above:

CDR-L1	CDR-L2	CDR-L3	replicates, log10 nM	signal with controls
KSSQSVLYELRQKNSVA	WASGRES	QQYHRLPLS	n.d. n.d. 4.46	0 of 9
KSSQSVLYESRNKNSVA	WASTRES	QQYHFLPIG	n.d. n.d. n.d.	0 of 9
KSSQSVHYESRNKNSVA	WASIRES	QQYHRQPLS	1.42 1.58 1.50	0 of 9

From the AlphaSeq antibody data of Engelhart et al. 2022 (doi:10.1038/s41597-022-01779-4), copy in the FLAb collection.